Assay results taken from ChEMBL document CHEMBL5131394, “Structure-activity and mechanistic studies of non-peptidic inhibitors of the PLK1 polo box domain identified through REPLACE” (Eur J Med Chem, 2022).

The chains behind the UniProt entries cited, without tags or fusion partners. Where a name states a change or a piece, a line headed by the entry shows the natural chain unless it says otherwise.
UniProt Q9H4B4: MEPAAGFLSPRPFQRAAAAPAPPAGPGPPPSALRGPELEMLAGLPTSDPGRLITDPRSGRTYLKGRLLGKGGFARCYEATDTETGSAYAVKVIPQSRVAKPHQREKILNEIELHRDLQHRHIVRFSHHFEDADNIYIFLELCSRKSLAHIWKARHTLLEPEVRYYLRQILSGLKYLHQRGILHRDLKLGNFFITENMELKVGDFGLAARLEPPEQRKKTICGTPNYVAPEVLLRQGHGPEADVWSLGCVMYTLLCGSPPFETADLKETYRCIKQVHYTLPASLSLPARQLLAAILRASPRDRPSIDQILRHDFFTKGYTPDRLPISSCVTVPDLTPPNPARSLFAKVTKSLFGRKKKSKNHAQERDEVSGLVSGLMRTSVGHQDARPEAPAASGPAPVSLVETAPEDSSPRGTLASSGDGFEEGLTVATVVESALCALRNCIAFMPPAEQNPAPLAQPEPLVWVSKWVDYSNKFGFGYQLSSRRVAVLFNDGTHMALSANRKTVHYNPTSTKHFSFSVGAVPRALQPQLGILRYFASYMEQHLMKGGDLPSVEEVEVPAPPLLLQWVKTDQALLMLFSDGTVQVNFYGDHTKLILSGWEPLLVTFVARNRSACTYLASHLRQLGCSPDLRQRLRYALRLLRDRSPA

These molecules were tested against T1, Serine/threonine-protein kinase PLK3 (Homo sapiens, UniProt Q9H4B4).

Row | SMILES | IC50 [µM]
1 | CCCCCCCCc1ccc(C(=O)Nc2ccc(C)cc2C(=O)O)cc1 | 7.7
2 | CCCCCCCCc1ccc(C(=O)Nc2cccc([N+](=O)[O-])c2C(=O)O)cc1 | 10
3 | CCCCCCCCc1ccc(C(=O)Nc2cccc(F)c2C(=O)O)cc1 | 13.2
4 | CCCCCCCCc1ccc(C(=O)Nc2cccc(O)c2C(=O)O)cc1 | 12.1
5 | CCCCCCCCc1ccc(C(=O)Nc2cccc(C(F)(F)F)c2C(=O)O)cc1 | 22.9
6 | CCCCCCCCc1ccc(C(=O)Nc2cc(C)ccc2C(=O)O)cc1 | 7.4

Biological target: T1, Serine/threonine-protein kinase PLK3
Remark: another data set of the same source

Row | SMILES | EC50 [µM]
7 | CCCCCCCCc1ccc(C(=O)Nc2ccc(C)cc2C(=O)O)cc1 | 6.9
